{
  "source": "paper PMC3272158",
  "about": "(Nature structural & molecular biology, 2012)",
  "biological_target": "LeuT (LeuT-WT) (Aquifex aeolicus, UniProt O67854)",
  "conditions": "150 mM Tris/Mes pH 7.5, 50 mM NaCl, 1 mM TCEP, 0.1% DDM; 1 μM 3H-Leu; S2 site (extracellular vestibule); value is residual binding",
  "data": [
    {"smiles": "CN(C)CCCN1c2ccccc2CCc2ccc(Cl)cc21", "note": "[clomipramine]", "values": [
      {"measurement": "% of 3H-Leu binding in the absence of CMI, at 1 mM CMI", "value": "45.2±4.7", "unit": "%"}
    ]}
  ]
}
